{
  "source": "patent US6291496A",
  "about": "“Treating cancers associated with overexpression of class I family of receptor tyrosine kinases” (priority 1999, dated 2001)",
  "origin": "cited, not measured here",
  "test_system": "metastatic breast cancer",
  "conditions": "cited from earlier work",
  "data": [
    {"substance": "HERCEPTIN: an antibody to HER-2/neu, available from Genentech", "values": [
      {"measurement": "remission time", "result": "lengthen remission time in metastatic breast cancer"}
    ]}
  ]
}
